{"source": "paper PMC8618983", "about": "“Investigation of the Transport Pathways Associated with Enhanced Brain Delivery of Peptide Drugs by Intranasal Coadministration with Penetratin” (Pharmaceutics, 2021)", "key": {"[1]": {"details": "mice, anti-insulin staining, n = 3 or 4"}, "[2]": {"details": "cited from earlier work", "excerpt": "During the permeation through the nasal mucosa, drugs come across microvascular vessels in the lamina propria directed toward the systemic circulation before reaching the brain or cerebrospinal fluid (CSF)."}, "[3]": {"details": "intranasal insulin 10 IU/kg with L-penetratin 2.0 mM, 30 min"}}}
{"substance": "insulin", "values": [{"measurement": "insulin distribution at bregma 0.85 mm (bottom part of the brain)", "setting": "[1]; [3]", "value": "insulin-derived intensive fluorescence at the bottom part of the brain"}, {"measurement": "insulin distribution at bregma 4.25 mm (olfactory bulb)", "setting": "[1]; [3]", "value": "most of the bright fluorescence derived from insulin came from the surface of the olfactory bulb"}, {"measurement": "insulin distribution at bregma −1.91 mm (hippocampus)", "setting": "[1]; [3]", "value": "could reach the deeper part of the brain, around the hippocampus"}, {"measurement": "insulin distribution at bregma 0.85 mm (central part, blood vessels)", "setting": "[1]; intranasal insulin 10 IU/kg with L-penetratin 2.0 mM, 30 min, tomato lectin for vessels", "value": "presence of insulin at the perivascular spaces of arterial blood vessels"}, {"measurement": "detailed insulin localization in the hippocampus", "setting": "[1]; intranasal insulin with L-penetratin, bregma −1.91 mm", "value": "specifically accumulate on the pyramidal cells of the hippocampus and the granular cells of the dentate gyrus"}, {"measurement": "delivery to the brain by intranasal coadministration with L-penetratin", "setting": "[2]", "value": "significantly increased"}]}
